Assays:
BHK-21 = experiment: Cytotoxicity against hamster BHK21 cells after 5 days; assay type: functional; details: Mesocricetus auratus
How it was run: (§1)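 HepG2 and BHK21 cells were seeded, incubated 24 h at 37 °C, then exposed to twofold serial dilutions of compound. The value is CC50 (50% cytotoxic concentration), from at least two independent assays.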

HepG2 = experiment: Cytotoxicity against human HepG2 cells after 5 days; assay type: functional; how it was run: as §1

## ClCCSc1nnc(Cc2ccc(Cl)cc2Cl)o1
BHK-21
  CC50: > 50 µM
HepG2
  CC50: > 50 µM

## O=[N+]([O-])c1cccc(Cc2nnc(SCCCl)o2)c1
BHK-21
  CC50: 19.7 µM
HepG2
  CC50: 14.7 µM

## ClCCSc1nnc(COc2ccc(Cl)cc2Cl)o1
BHK-21
  CC50: 3.75 µM
HepG2
  CC50: 4.5 µM

## O=[N+]([O-])c1cccc(OCc2nnc(SCCCl)o2)c1
BHK-21
  CC50: 17.7 µM
HepG2
  CC50: 11.3 µM

Reference: ChEMBL document CHEMBL1926580, “Identification and development of 2,5-disubstituted oxadiazole as potential candidate for treatment of XDR and MDR tuberculosis” (2012)
